{"source": "patent US20230021880A1", "about": "“Cladribine regimen for treating progressive forms of Multiple Sclerosis” (Merck Patent GmbH, priority 2017, published 2023)", "key": {"[1]": {"tested_on": "lymphocytes", "experiment": "Lymphocyte counts across clinical studies (pharmacodynamic effects)"}, "[2]": {"experiment": "Population pharmacokinetic analysis (pooled data from various studies)", "details": "population kinetic analysis"}, "[3]": {"tested_on": "mice", "details": "mice (also following treatment of the males only)"}}, "data": [{"smiles": "Nc1nc(Cl)nc2c1ncn2[C@H]1C[C@H](O)[C@@H](CO)O1", "note": "[Cladribine, 2-chloro-2′deoxyadenosine]", "values": [{"measurement": "time after the first dose in each year at which the largest proportion of patients with grade 3 or 4 lymphopenia was seen", "setting": "[1]; across studies", "result": 2, "unit": "months"}, {"measurement": "patients whose lymphocyte counts returned to the normal range by week 144 from the first dose", "setting": "[1]; cumulative dose 3.5 mg/kg", "result": "more than 75%"}, {"measurement": "effect of age (range 18 to 65 years) or gender on pharmacokinetics", "setting": "[2]", "result": "did not show any effect"}, {"measurement": "teratogenicity", "setting": "[3]", "result": "teratogenic"}]}]}
